Values of other authors, collected in publication PMC12555108, “In‐vitro Assessment of BCRP‐Mediated Efflux of Antiseizure Medications in Human Blood‐Brain Barrier Cell Model” (Journal of Biochemical and Molecular Toxicology, 2025).

Set-up: method as in Johannessen, 2004; Patsalos, 2008; Lee, 2016
Settings: patients with epilepsy; ref Johannessen, 2004; Patsalos, 2008; Lee, 2016; cited from earlier work

Nc1nnc(-c2cccc(Cl)c2Cl)c(N)n1 [LTG, lamotrigine]
Therapeutic plasma concentration range: 10 to 60 µM
